These results are taken from publication PMC9635817 (Frontiers in Nutrition, 2022).

Chains of the proteins cited; added tags and fusions are not shown. Residues count along the entry.
UniProt O42275, 24-633 limits assumed: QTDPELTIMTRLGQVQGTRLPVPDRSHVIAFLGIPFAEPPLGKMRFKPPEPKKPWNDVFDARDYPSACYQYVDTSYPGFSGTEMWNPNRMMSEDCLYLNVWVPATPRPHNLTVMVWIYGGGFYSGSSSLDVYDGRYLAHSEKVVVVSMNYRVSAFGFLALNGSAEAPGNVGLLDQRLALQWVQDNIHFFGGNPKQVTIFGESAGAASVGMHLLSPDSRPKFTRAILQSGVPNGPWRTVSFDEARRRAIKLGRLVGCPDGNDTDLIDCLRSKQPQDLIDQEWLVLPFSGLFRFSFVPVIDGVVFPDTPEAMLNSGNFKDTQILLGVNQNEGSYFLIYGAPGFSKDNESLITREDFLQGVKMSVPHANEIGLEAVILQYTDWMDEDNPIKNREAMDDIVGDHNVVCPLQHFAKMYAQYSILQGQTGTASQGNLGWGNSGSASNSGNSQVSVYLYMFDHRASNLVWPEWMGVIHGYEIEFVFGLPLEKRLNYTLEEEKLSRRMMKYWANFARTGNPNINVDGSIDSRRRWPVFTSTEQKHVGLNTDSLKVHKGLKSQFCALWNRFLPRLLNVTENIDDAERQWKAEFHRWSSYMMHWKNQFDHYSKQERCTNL

The structures appear in SMILES notation. This is a selection: effects in other tests are not listed, and their absence says nothing. Marks after values point to notes of the source that are not given here.

In experiment [1] the target is T1, AChE (Electrophorus electricus, UniProt O42275). The experiment is described as follows: Intrinsic fluorescence emission of AChE-peptide complex. The following applies: peptide 1.56, 3.13, 6.25 μg/ml; excitation 280 nm.
In experiment [2] the target is T1, AChE. Put plainly: Kinetics of AChE inhibition (Lineweaver-Burk).

Turning to `N=C(N)NCCC[C@H](NC(=O)[C@H](CO)NC(=O)[C@H](CCC(N)=O)NC(=O)[C@@H](N)CO)C(=O)N[C@@H](CO)C(=O)O`, the “Effect on AChE fluorescence intensity (FI)” value on AChE [1] is given as “reduced the FI of the enzyme”. For the same compound, the Km at AChE [2] (peptide 0.05 mM) and on AChE [2] (peptide 0.1 mM) was 10 µM throughout. Moreover, the “Vmax (ΔA/min)” value on AChE [2] (peptide 0.05 mM) is given as 6.20 ± 0.00^e ΔA/min.
